Results: PubChem BioAssay AID250 (DTP/NCI, 2004)
Toxic doses and inconclusive results are not listed.

System: BDF1 mice, L1210 leukemia sc, survival T/C
Assay: NCI In Vivo Anticancer Drug Screen. Data for tumor model L1210 Leukemia (subcutaneous) in B6D2F1 (BDF1) mice
Settings: higher = longer survival
Description: The antitumor activity of compounds was measured in mice bearing transplantable tumors. Survival or tumor size were measured and the results are expressed as the measurement made in the treated group (T) divided by the measurement made in the vehicle treated control group (C). The tumor model used in this assay is L1210 Leukemia (subcutaneous) in B6D2F1 (BDF1) mice

## CN(Cc1cnc2nc(N)nc(N)c2n1)c1ccc(C(=O)N[C@@H](CCC(=O)O)C(=O)O)cc1
endpoint: mean survival time, dose: 40.0 mg/kg/injection, schedule: Q04DX003 (ip), vehicle: sodium bicarbonate
  T/C: 151 % of control
endpoint: mean survival time, dose: 45.0 mg/kg/injection, schedule: Q04DX004 (ip), vehicle: other
  T/C: 121 % of control
endpoint: median survival time, dose: 0.3 mg/kg/injection, schedule: Q01DX Z (sc), vehicle: other
  T/C: 121 % of control
endpoint: median survival time, dose: 1.08 mg/kg/injection, schedule: Q01DX010 (sc), vehicle: other
  T/C: 172 % of control
endpoint: median survival time, dose: 1.5 mg/kg/injection, schedule: Q01DX012 (ip), vehicle: sodium bicarbonate
  T/C: 172 % of control
endpoint: median survival time, dose: 1.8 mg/kg/injection, schedule: Q01DX009 (ip), vehicle: sodium bicarbonate
  T/C: 162 % of control
endpoint: median survival time, dose: 1.8 mg/kg/injection, schedule: Q01DX015 (sc), vehicle: other
  T/C: 172 % of control
endpoint: median survival time, dose: 3.02 mg/kg/injection, schedule: Q01DX Z (sc), vehicle: other
  T/C: 172 % of control
endpoint: median survival time, dose: 3.75 mg/kg/injection, schedule: Q01DX Z (sc), vehicle: other
  T/C: 172 % of control
endpoint: median survival time, dose: 5.0 mg/kg/injection, schedule: Q01DX025 (sc), vehicle: other
  T/C: 172 % of control
endpoint: median survival time, dose: 8.4 mg/kg/injection, schedule: Q02DX Z (sc), vehicle: other
  T/C: 172 % of control
